Data published in ChEMBL document CHEMBL5137076, “SLL-627 Is a Highly Selective and Potent κ Opioid Receptor (KOR) Agonist with an Unexpected Nonreduction in Locomotor Activity” (2022).

Columns and labels:
Mu-type opioid receptor [1] = molecular target: T1, Mu-type opioid receptor (Rattus norvegicus, UniProt P33535); test: Displacement of [3H]DAMGO from rat MOR expressed in CHO cell membranes incubated for 30 mins by liquid scintillation counting method
[2] = molecular target: T2, Delta-type opioid receptor (Rattus norvegicus, UniProt P33533); test: Displacement of [3H]DPDPE from rat DOR expressed in CHO cell membranes incubated for 30 mins by liquid scintillation counting method
[3] = molecular target: T3, Kappa-type opioid receptor (Homo sapiens, UniProt P41145); test: Displacement of [3H]U69593 from human KOR expressed in CHO cell membranes incubated for 30 mins by liquid scintillation counting method
Mu-type opioid receptor [4] = molecular target: T1, Mu-type opioid receptor; test: Agonist activity at rat MOR expressed in CHO cell membranes after 1 hr by [35S]GTPgammaS binding assay
[5] = molecular target: T3, Kappa-type opioid receptor; test: Agonist activity at human KOR expressed in CHO cell membranes after 1 hr by [35S]GTPgammaS binding assay
[6] = molecular target: T2, Delta-type opioid receptor; test: Agonist activity at rat DOR expressed in CHO cell membranes after 1 hr by [35S]GTPgammaS binding assay
Mus musculus [7] = test: Antinociceptive activity in ip dosed Kunming mouse assessed as reduction in nociceptive response after 4 hrs by hot plate test
Mus musculus [8] = test: Antinociceptive activity in ip dosed Kunming mouse assessed as reduction in nociceptive response after 4 hrs by abdominal constriction test

SMILES	Ki (Mu-type opioid receptor [1]) [nM]	Ki [2] [nM]	Ki [3] [nM]	EC50 (Mu-type opioid receptor [4]) [nM]	EC50 [5] [nM]	EC50 [6] [nM]	ED50 (Mus musculus [7]) [mg/kg]	ED90 (Mus musculus [7]) [mg/kg]	ED50 (Mus musculus [8]) [mg/kg]
COc1ccc2c3c1O[C@H]1[C@@]4(OC)CC[C@@]5(C[C@@]4(C)C(=O)c4ccc(C(C)C)cc4)[C@@H](C2)N(CC2CC2)CC[C@]315	731	65	32.9						
COc1ccc2c3c1O[C@H]1[C@@]4(OC)CC[C@@]5(C[C@@]4(C)C(=O)c4ccc6ccccc6c4)[C@@H](C2)N(CC2CC2)CC[C@]315	107	338	86.2						
COc1ccc2c3c1O[C@H]1[C@@]4(OC)CC[C@@]5(C[C@@]4(C)[C@H](O)c4ccc(Cl)c(Cl)c4)[C@@H](C2)N(CC2CC2)CC[C@]315	620	93.8	2410						
COc1ccc2c3c1O[C@H]1[C@@]4(OC)CC[C@@]5(C[C@@]4(C)C(=O)c4ccccc4)[C@@H](C2)N(CC2CC2)CC[C@]315	236	> 10000	40.4	1200	287				
COc1ccc2c3c1O[C@H]1[C@@]4(OC)CC[C@@]5(C[C@@]4(C)C(=O)c4ccc(-c6ccccc6)cc4)[C@@H](C2)N(CC2CC2)CC[C@]315	728	> 10000	463						
COc1ccc(C(=O)[C@]2(C)C[C@@]34CC[C@]2(OC)[C@@H]2Oc5c(OC)ccc6c5[C@@]23CCN(CC2CC2)[C@@H]4C6)cc1	78.4	1180	147						
COc1ccc2c3c1O[C@H]1[C@@]4(OC)CC[C@@]5(C[C@@]4(C)C(=O)c4cc(C)cc(C)c4)[C@@H](C2)N(CC2CC2)CC[C@]315	99.4	259	79.8						
COc1ccc2c3c1O[C@H]1[C@@]4(OC)CC[C@@]5(C[C@@]4(C)C(=O)c4ccc(C)cc4)[C@@H](C2)N(CC2CC2)CC[C@]315	107	> 10000	83						
COc1ccc2c3c1O[C@H]1[C@@]4(OC)CC[C@@]5(C[C@@]4(C)[C@H](O)c4ccccc4)[C@@H](C2)N(CC2CC2)CC[C@]315	961	> 5000	3.3	553	0.015	886	0.1	1.7	0.4
COc1ccc2c3c1O[C@H]1[C@@]4(OC)CC[C@@]5(C[C@@]4(C)[C@H](O)c4ccc(C(C)C)cc4)[C@@H](C2)N(CC2CC2)CC[C@]315	54.3	38.4	175						
COc1ccc2c3c1O[C@H]1[C@@]4(OC)CC[C@@]5(C[C@@]4(C)C=O)[C@@H](C2)N(CC2CC2)CC[C@]315	30.3	1120	265	99.4		43.8			
